Reference: PubChem BioAssay AID588382 (National Center for Advancing Translational Sciences (NCATS), 2011)
In all, about 1,300 compounds went through this assay and about 150 (12%) were called active. The source calls these results inconclusive, neither active nor inactive. The call rests on the fitted dose curve; in most records, active means well fitted cell-killing curve with a large enough effect; inconclusive means small, poorly fitted or top-dose-only effect, or effect the other way; inactive means flat fitted curve, though single readings scatter.

Assay: qHTS of small molecules that selectively kill Giardia lamblia: Hit Validation in HepG2 cytotox;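 further: compound exposure lasted overnight at 37 deg C; nearly all actives have a fitted effect of over 55% in size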
Conditions: HepG2 cytotoxicity, cell viability
From the text: Giardia lamblia is a human pathogen afflicting impoverished nations, and the most common cause of outbreaks of diarrhea in the United States. Giardia has been classified by the CDC as a category B bioterrorism organism. The favored anti giardiasis drugs in the US are metronidazole or tinidazole, compounds that have undesirable side effects. Moreover, increasing resistance to drug regimes and recurrence are a concern. It is thus clear that alternative drug treatments are needed.
In a collaboration between the University of Maryland, College Park and the NIH Chemical Genomics Center, a bioluminescence Giardia viability assay based on the trophozoites' ATP content was developed. This assay is suitable for high throughput screening, and miniaturized the assay for compound screening in 1536-well plates. The goal of the project is to screen the Molecular Libraries Small Molecule Repository (MLSMR) for compounds that selectively kill Giardia trophozoites. This counterscreen looks at the toxicity of the compounds against the human HepG2 cell line.
NIH Chemical Genomics Center [NCGC]
NIH Molecular Libraries Probe Centers Network [MLPCN] […]
4 uL of HepG2 cells ae dispensed into white 1536-well plates. […] 2 uL of ATPLite is added and the plates are incubated for 15 min at room temperature before they are read on the ViewLux for luminiescence.
Potency means the concentration at half of the fitted maximal effect.

Structure (SMILES)	Potency
O=[N+]([O-])c1cc([N+](=O)[O-])c(-c2ccn[nH]2)s1	inconclusive: 26.1 µM
